Values of other authors in patent publication US20140100537A1, “TRANSDERMAL PHARMACEUTICAL PREPARATION AND ADMINISTRATION OF TIROFIBAN” (MEDICURE INTERNATIONAL INC., priority 2009, published 2014).

Details: in vivo

For `CCCCS(=O)(=O)NC(Cc1ccc(OCCCCC2CCNCC2)cc1)C(=O)O.Cl` (stereo not shown) [tirofiban], the biological half life is given as “approximately 2 hours”.
